Measurements taken from patent publication US9346810B2, “Pyrrolopyrimidine compounds and uses thereof” (HUTCHISON MEDIPHARMA LIMITED, priority 2010, dated 2016).

By UniProt entry, the sequences of proteins in these tests, tags left out. Residues count along the entry.
UniProt P23458, 875-1153: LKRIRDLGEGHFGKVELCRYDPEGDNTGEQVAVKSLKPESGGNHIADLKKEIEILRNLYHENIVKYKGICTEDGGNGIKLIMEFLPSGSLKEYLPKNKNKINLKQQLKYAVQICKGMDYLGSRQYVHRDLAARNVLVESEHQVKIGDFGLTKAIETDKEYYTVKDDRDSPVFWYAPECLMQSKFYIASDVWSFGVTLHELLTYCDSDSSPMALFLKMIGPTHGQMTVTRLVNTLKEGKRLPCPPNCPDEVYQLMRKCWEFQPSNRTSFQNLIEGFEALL

Biological target: Recombinant human JAK1 catalytic domain (Homo sapiens (Human), UniProt P23458)
Assay: JAK1 kinase assay (Z'-LYTE, Tyr 6 Peptide)
Format: biochemical
Details: read-out: JAK1 (enzyme, IC50)
Protocol: JAK1/2/3 kinase assay are performed in vitro using Kit-Tyr 6 Peptide (Invitrogen, Cat. No. PV4122). TYK2 kinase assay are performed in vitro using Z′-LYTE™ Kinase Assay Kit-Tyr 3 Peptide (Invitrogen, Cat. No. PV3192). […] All compounds are initially tested at 8 different concentrations (1 μM down to 0.0003 μM) using a 1:3 serial dilution scheme.

**Q.** For `CNS(=O)(=O)N(C)[C@@H]1CCN(c2ncnc3[nH]ccc23)C1` [Compound 47], which IC50 is on record?
**A.** 0.119 µM

**Q.** `CN(c1ccc(C(=O)N[C@@H]2c3ccccc3C[C@H]2O)cc1F)[C@@H]1CCN(c2ncnc3[nH]ccc23)C1` [Compound 206] was tested. Which IC50 did it give?
**A.** 0.002 µM
